Test system: Maltose monohydrate
Test: purified protein, by the assay type
Conditions: other: saccharide as substrate of the purified protein; pH 7.0; 37.0 °C

Work on “Acremonium chrysogenum NBRC30055-derived saccharide oxidase (Hapsidospora chrysogenum ATCC 11550)” yielded a Km of 14 mM.

Reference: US10167453B2, “Saccharide oxidase, and production method for same and use of same” (AMANO ENZYME INC., priority 2012, dated 2019)
